Assay outcomes (PubChem BioAssay)
miR-21 reporter – raises the signal of a miR-21 reporter | HeLa miR-21 FLuc reporter, luciferase, 48 h | Potency, µM (doses to about 38.3 µM), without a hit: at the top dose reporter change, positive = more light | 340,000 tested, under 10 active | AID 2288; active = well fitted rising curve with a large enough effect; inconclusive = small, poorly fitted or top-dose-only effect; inactive = no such curve, though single readings can be large or run the other way;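 note: % of control where 0% means no effect; miR-21 action dims this reporter so a rising signal means less miR-21 action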
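HeLa cells stably expressing CMV-driven firefly luciferase with a downstream miR-21 binding sequence, endogenously expressing miR-21, were treated with titrations (up to about 40uM final) for 48 hours at 37 degree Celsius. Luciferase luminescence was read after lysis.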
HEK293 tox – cytotoxicity in counter-screen for GLP-1R inverse agonists. HEK293 cAMP-luciferase reporter cells, luminescence, 24 h. Potency, µM (top dose mostly 38.3 µM), for inactives: at the highest dose activity change, negative = inhibition, hits mostly inhibitors. 410,000 compounds, 0.13% hits. AID 624418;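 note: loss of luciferase light is scored as toxicity; potency is the fitted concentration of half-maximal effect; % is set by controls: 0 for no effect and ±100 for the full control effect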
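Step one: seed cells (200 cells/uL, DMEM with 10% Nu serum, 1% pen-strep). Step two: 12-hour incubation at 37 deg C. Step three: pin 23 nL compound, incubate 24 hr. Step four: add luciferase reagent, read luminescence 12 min later.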
PTHR1 agonist – agonists of human PTHR1 parathyroid hormone receptor | HEK293 GP2 PTHR1 cells, GloSensor cAMP luminescence, 1 h | 410,000 compounds, 0.075% hits | Q03431 | Potency, µM (highest dose often 115 µM), for the others: at the top dose activation, actives largely listed as activators | AID 743266; note: potency is the fitted concentration of half-maximal effect; nearly all actives have a fitted effect of over 55% in size
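HEK-293-derived GP2 cells expressing PTHR1 and a GloSensor cAMP reporter, 3,000/well, plated overnight, given luciferin plus IBMX (each 0.5 mM as added) for 1 h at 37 °C, then compound for 1 h at 37 °C. Luminescence was read after 15 min at room temperature.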
GLP1R ag – GLP-1 receptor (human) agonism; P43220; HEK293 GLP-1R CRE-luciferase, luminescence, 4-6 h; cells express a hypersensitive GLP-1R form; Potency, µM (top dose mostly 45.6 µM), for the others: at the top dose activation, actives largely listed as activators; 380,000 compounds, 0.007% hits; AID 624172; note: potency is the fitted concentration of half-maximal effect; % of control where 0% means no effect
Pin1 inh – inhibitors of human Pin1 | Potency, µM (highest dose often 115 µM), inactives show at the highest dose activity, negative = inhibition, usual class: inhibitors | Q13526 | 390,000 compounds, 0.009% hits | Pin1 FP peptide displacement, HiFluor488, 10 min | AID 504891; active = well fitted inhibition curve with a large enough effect in the polarisation, with a control signal flat, not every such curve was filed as active; inconclusive = small, poorly fitted or top-dose-only effect, or effect the other way, or a change in a side signal; inactive = no such curve, though single readings can be large or run the other way; the % refers to the polarisation; note: potency is the fitted concentration of half-maximal effect; % is set by controls: 0 for no effect and ±100 for the full control effect
GLP1R inv ag – GLP-1 receptor (human) inverse agonism | P43220 | HEK293 GLP-1R CRE-luciferase, luminescence, 24 h; GLP-1R form is constitutively active | Potency, µM (doses to about 38.3 µM), for inactives: at the highest dose activity change, negative = inhibition, usual class: inhibitors | 410,000 compounds, 1.6% hits | AID 624417; note: potency is the fitted concentration of half-maximal effect; % is set by controls: 0 for no effect and ±100 for the full control effect; nearly all actives have a fitted effect of over 55% in size
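HEK293 cells stably co-expressing constitutively active GLP-1R and a cAMP-responsive luciferase reporter were seeded in DMEM with 10% Nu serum, given compounds after 12 h, and incubated 24 h at 37 deg C. Luminescence was then read.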
* marks the source's active call; other numbers are inactive results; i = inactive; ? = inconclusive; / = not tested or not shown. Rows were chosen to be rich in hits. Some 1.7% of all compounds tested hit in one or more screens of this group. Unless noted, calls come from the whole dose curve; as a rule, active = well fitted curve in the direction sought with a large enough effect; inconclusive = small, poorly fitted or top-dose-only effect, or another doubt; inactive = no such curve, though single readings can be large; an effect the other way counts as inactive or inconclusive.

item	SMILES	miR-21 reporter	HEK293 tox	PTHR1 agonist	GLP1R ag	Pin1 inh	GLP1R inv ag
1	CCc1ccc(NC(=O)N2CC(C)Oc3ccc(C)cc32)cc1 (stereo not given)	-2%	11%	-12%	/	-5%	?
2	Cc1ccc(Cn2c(SCC(=O)NCc3ccccc3Cl)nc3ccsc3c2=O)cc1	0%	-5%	i	/	19%	-1%
3	Cc1ccc(S(=O)(=O)N(CC(=O)N2CCc3ccccc3C2)c2ccc(C)c(C)c2)cc1	?	-9%	-2%	/	-8%	11µM*
4	Cc1ccc(N(CC(=O)N2CCc3ccccc32)S(=O)(=O)c2cccs2)cc1	0%	4%	i	0%	19%	10µM*
5	CO[C@@]1(NC(=O)CSC[C@@H](N)C(=O)O)C(=O)N2C(C(=O)O)=C(CSc3nnnn3C)CS[C@@H]21	/	/	/	-2%	/	/
6	CCOC(=O)Cn1c(=O)n(CC2CCCO2)c2nc(-c3ccc(CC)cc3)nc(C(N)=O)c21 (stereo not given)	-2%	5%	i	2%	15%	-13%
7	COC(=O)/C=C/c1ccccc1S(=O)(=O)N(Cc1ccccc1)Cc1ccco1	?	-30%	-17%	5%	-2%	2.2µM*
8	O=S(=O)(c1ccc(S(=O)(=O)N(Cc2ccccc2)Cc2ccco2)cc1)N1CCCC1	/	2%	i	-13%	0%	0%
9	CCOc1ccc(OCC)c(S(=O)(=O)NCCOC23CC4CC(CC(C4)C2)C3)c1	21%	-13%	-18%	0%	12%	4µM*
10	CC(=O)N1CCN(C(=O)c2ccc(-c3ccccc3Cl)o2)CC1	/	-1%	-9%	9%	10%	12%
11	O=C(c1ccc(-c2ccccc2Cl)o1)N1CCCCCCC1	/	-16%	-22%	?	0%	5.6µM*
12	COc1ccccc1C(CNC(=O)c1ccc(-c2ccccc2Cl)o1)N1CCCC1 (stereo not given)	/	?	-25%	21%	12%	4.5µM*
13	COc1ccccc1C(CNC(=O)CCNS(=O)(=O)c1ccc(Br)cc1)N1CCCC1 (stereo not given)	/	-14%	-1%	8%	-3%	10µM*
14	O=C(CCNS(=O)(=O)c1ccc(Br)cc1)NCCc1ccc(Cl)cc1	14%	4%	-21%	5%	-3%	10µM*
15	CCCCN=C1NN=C(c2ccc(C)c(C)c2)CS1	-37%	?	-8%	7%	6%	?
16	CCCCN=C1NN=C(c2ccc3c(c2)OCCO3)CS1	-2%	-23%	-41%	10%	13%	8.9µM*
17	COc1ccc(-c2cn3cccnc3n2)cc1NC(=O)COc1ccccc1	-9%	-23%	i	/	1%	-9%
18	COc1ccccc1C(=O)Nc1cccc(C(=O)OCc2cc(=O)n3cc(C)sc3n2)c1	-25%	-1%	i	/	29%	13%
19	C=CCNC(=O)c1onc(CSc2ccc(Cl)cc2)c1C(=O)NCC=C	6%	?	i	32%	-3%	13µM*
20	C=CCNC(=O)c1onc(CSc2ccc(Cl)cc2)c1C(=O)O	10%	-4%	-5%	-1%	-2%	2.2µM*

4 entries out of the list above, arranged by the number in miR-21 reporter, descending:
# | Compound | miR-21 reporter
9 | CCOc1ccc(OCC)c(S(=O)(=O)NCCOC23CC4CC(CC(C4)C2)C3)c1 | 21%
16 | CCCCN=C1NN=C(c2ccc3c(c2)OCCO3)CS1 | -2%
18 | COc1ccccc1C(=O)Nc1cccc(C(=O)OCc2cc(=O)n3cc(C)sc3n2)c1 | -25%
15 | CCCCN=C1NN=C(c2ccc(C)c(C)c2)CS1 | -37%

The listing continues.
item	SMILES	miR-21 reporter	HEK293 tox	PTHR1 agonist	GLP1R ag	Pin1 inh	GLP1R inv ag
21	CCOc1ccc(NC(=O)CN(C)C(=O)c2cn(-c3ccc(F)cc3)nc2-c2cccc(OC)c2)cc1OCC	/	-24%	i	-5%	10%	4.5µM*
22	CN(CC(=O)Nc1cccc(F)c1)C(=O)c1cn(-c2ccccc2)nc1-c1ccccc1	2%	-30%	i	12%	6%	?
23	CCN(CC)CCNC(=O)c1ccc(NC(=O)c2cn(-c3ccc(F)cc3)nc2-c2cccc(OC)c2)cc1	-2%	?	i	7%	0%	8.9µM*
24	COc1ccc(CCn2c3c(c(=O)[nH]c2=S)CN(CC(C)C)CN3)cc1OC	/	/	/	/	3%	/
25	Cc1nc2ccccc2n1CCc1nc2c3ccccc3nc(SCc3ccccc3F)n2n1	-5%	-3%	i	/	5%	3%
